Test results reported in patent US8778871B2 (Takeda Pharmaceutical Company Limited, priority 2004, dated 2014).
Several values for one entry are separate records, joined by “and”; a condition that tells them apart may be missing. Equal values may be shown once.

Assays:
[1] = Induction of ovulation in immature rat using metastin derivatives; assay type: in vivo; details: eCG-primed immature female Wistar rats; Group A, s.c. 20 IU/animal
Method: Equine chorionic gonadotropin (eCG, serotropin, Dainippon Pharmaceutical Co., Ltd.) was dissolved in saline (Otsuka Pharmaceutical Co., Ltd.) in a concentration of 100 IU/mL. Using a 1 ml tuberculin syringe and a 26-gauge needle (both by Terumo Co., Ltd.), eCG was subcutaneously injected into the dorsal area of female Wistar rats of 23 days old after birth (Charles River Japan, Inc.) in a dose of 10 IU/animal, during 9:00 to 10:00 AM. Following the eCG injection, the animal was grouped after 47 to 48 hours as shown below, to which groups, each drug was injected. […]
The number of oocytes was counted by referring to the method described in Eur. J. Endocrinol., 138, 594-600 (1998).
Where retention of oocytes in the oviducal ampulla was confirmed by stereomicroscopic observation of the oviduct, the ampulla was punctured with a 27-gauge needle for syringe (Terumo) to retrieve the oocytes. After granulosa cells surrounding the oocytes were removed by trypsin treatment, the number of oocytes was counted. […]
The blood estradiol level was measured by radioimmunoassay (DPC.Estradiol Kit, Iatron, Inc.).
The blood progesterone level was measured by radioimmunoassay (DPC.Progesterone, Iatron, Inc.).

[2] = Induction of ovulation by human metastin in immature rat; assay type: in vivo
Method: Equine chorionic gonadotropin (eCG, serotropin, Dainippon Pharmaceutical Co., Ltd.) was dissolved in saline (Otsuka Pharmaceutical Co., Ltd.) in a concentration of 100 IU/mL. Using a 1 ml tuberculin syringe and a 26-gauge needle (both by Terumo Co., Ltd.), eCG was subcutaneously injected into the dorsal area of female Wistar rats of 23 days old after birth (Charles River Japan, Inc.) in a dose of 10 IU/animal, during 9:30 to 10:00 AM. Following the eCG injection, the animal was grouped after 47 to 48 hours as shown below, to which groups, each drug was injected.
Group A (5 rats): Human chorionic gonadotropin (hCG, gonadotropin, Dainippon Pharmaceutical Co., Ltd.) was dissolved in saline at 100 IU/mL and the solution was subcutaneously injected into the back in a dose of 20 IU/animal.
Group D (6 rats): Saline was subcutaneously injected into the back in a dose of 200 μL/animal.
After administration of the drugs described above, the animal was sacrificed by decapitation after 24 to 25 hours to recover blood, bilateral oviducts and uterus. In collecting blood, 90 μl of 10 KIU/ml aprotinin solution (Trasylol, Bayer) containing 3 mg/ml EDTA had been previously filled in a tube for recovery to prevent blood clotting. After blood recovery, the blood was thoroughly blended and the mixture was centrifuged at 2,000 G for 25 minutes. […]
The number of oocytes was counted as follows.
Where retention of oocytes in the oviducal ampulla was confirmed by stereomicroscopic observation of the oviduct, the ampulla was punctured with a syringe with 27-gauge needle for syringe (Terumo) to retrieve the oocytes. After granulosa cells surrounding the oocytes were removed by trypsin treatment, the number of oocytes was counted. […]
The level of estradiol contained in the plasma collected from the rats shown in TABLE 22 was determined by radioimmunoassay (DPC-Estradiol Kit; Diagnostic Products Corporation).
The level of progesterone contained in plasma was determined by radioimmunoassay (DPC.Progesterone; Diagnostic Products Corporation).

Question: For “hCG: Human chorionic gonadotropin (hCG, gonadotropin, Dainippon Pharmaceutical Co., Ltd.)”, which “number of oocytes in average per rat” value [1] is on record?
Answer: 38.0 oocytes

Question: And the “Average of Ovulation (number of oocytes)” value ([2]; Group A: hCG 20 IU/animal s.c., immature rat, 5 rats)?
Answer: 37.6

Question: What about the “number of oocytes, individual rat” value ([2]; Group A: hCG 20 IU/animal s.c., immature rat, 24 to 25 hours after administration) of the same substance?
Answer: 36 and 35 (2×) and 40 and 42

Question: What about the “number of oocytes in average per rat” value ([2]; eCG-primed immature female Wistar rats, Group A, s.c. 20 IU/animal) of the same substance?
Answer: 37.6 oocytes
